Experimental data reported in the NIST ThermoML archive (doi:10.1016/j.jct.2015.02.007).

Test: xn = mol fraction of the nth substance listed
Conditions: 100 kPa, Liquid; for mass density: Vibrating tube method; for speed of sound: Pulse-echo method

OCCOCCOCCOCCO [tetraethylene glycol] + O
Conditions	mass density [kg/m3]	speed of sound [m/s]
308.15 K, x1 = 0.759	1111.35	–
308.15 K, x1 = 0.8201	1111.52	–
308.15 K, x1 = 0.8353	1111.55	–
308.15 K, x1 = 0.8804	1111.65	–
308.15 K, x1 = 0.9237	1111.74	–
308.15 K, x1 = 0.9719	1111.87	–
308.15 K, x1 = 1	1111.96	–
313.15 K, x1 = 0.0004	–	1531.6
313.15 K, x1 = 0.0009	–	1533.7
313.15 K, x1 = 0.0016	–	1537.1
313.15 K, x1 = 0.0031	–	1543.8
313.15 K, x1 = 0.0057	–	1555
313.15 K, x1 = 0.0086	–	1566.8
313.15 K, x1 = 0.0116	1008.56	–
313.15 K, x1 = 0.012	–	1579.6
313.15 K, x1 = 0.0155	–	1591.7
313.15 K, x1 = 0.0194	–	1604.4
313.15 K, x1 = 0.0203	1018.94	–
313.15 K, x1 = 0.0232	–	1615.7
313.15 K, x1 = 0.0274	–	1627.2
313.15 K, x1 = 0.0318	–	1638
313.15 K, x1 = 0.0375	–	1650.4
313.15 K, x1 = 0.0406	1038.86	–
313.15 K, x1 = 0.0422	–	1659.2
313.15 K, x1 = 0.0478	–	1668.7
313.15 K, x1 = 0.0532	–	1676.4
313.15 K, x1 = 0.0581	–	1682.5
313.15 K, x1 = 0.0605	1053.52	–
313.15 K, x1 = 0.0629	–	1687.7
313.15 K, x1 = 0.0674	–	1691.8
313.15 K, x1 = 0.073	–	1696.2
313.15 K, x1 = 0.0764	–	1698.5
313.15 K, x1 = 0.0801	–	1700.6
313.15 K, x1 = 0.0806	1064.71	–
313.15 K, x1 = 0.0846	–	1702.7
313.15 K, x1 = 0.0885	–	1704.3
313.15 K, x1 = 0.0944	–	1706
313.15 K, x1 = 0.0951	–	1706.2
313.15 K, x1 = 0.1024	1073.92	–
313.15 K, x1 = 0.1028	–	1707.5
313.15 K, x1 = 0.1088	–	1707.9
313.15 K, x1 = 0.1108	–	1707.9
313.15 K, x1 = 0.1131	–	1707.9
313.15 K, x1 = 0.1275	–	1706.5
313.15 K, x1 = 0.1415	–	1703.4
313.15 K, x1 = 0.1511	1087.11	–
313.15 K, x1 = 0.1573	–	1698.7
313.15 K, x1 = 0.1715	–	1693.6
313.15 K, x1 = 0.1914	–	1685.8
313.15 K, x1 = 0.2006	1094.46	–
313.15 K, x1 = 0.2132	–	1677
313.15 K, x1 = 0.2363	–	1667.7
313.15 K, x1 = 0.25	1098.7	–
313.15 K, x1 = 0.2621	–	1657.9
313.15 K, x1 = 0.2912	–	1647.7
313.15 K, x1 = 0.3012	1101.38	–
313.15 K, x1 = 0.3544	–	1628.8
313.15 K, x1 = 0.4024	1104.29	–
313.15 K, x1 = 0.404	–	1616.7
313.15 K, x1 = 0.4539	–	1606.3
313.15 K, x1 = 0.4964	1105.7	–
313.15 K, x1 = 0.5601	–	1588.5
313.15 K, x1 = 0.5985	1106.62	–
313.15 K, x1 = 0.6931	–	1572.9
313.15 K, x1 = 0.7018	1107.18	–
313.15 K, x1 = 0.759	1107.38	–
313.15 K, x1 = 0.8201	1107.54	–
313.15 K, x1 = 0.8353	1107.58	–
313.15 K, x1 = 0.8369	–	1562.8
313.15 K, x1 = 0.8804	1107.67	–
313.15 K, x1 = 0.9134	–	1558.7
313.15 K, x1 = 0.9237	1107.77	–
313.15 K, x1 = 0.9649	–	1555.8
313.15 K, x1 = 0.9719	1107.89	–
313.15 K, x1 = 1	–	1553.5
